# Source: publication PMC2670829 (BMC Pharmacology, 2009)
# Conditions: 24–72 hours after a single 8 mg/kg dose of rapamycin
smiles,measurement,value
CO[C@H]1C[C@@H]2CC[C@@H](C)[C@@](O)(O2)C(=O)C(=O)N2CCCC[C@H]2C(=O)O[C@H]([C@H](C)C[C@@H]2CC[C@@H](O)[C@H](OC)C2)CC(=O)[C@H](C)/C=C(\C)[C@@H](O)[C@@H](OC)C(=O)[C@H](C)C[C@H](C)/C=C/C=C/C=C/1C [Rapamycin],Average rapamycin levels,12 to 40 ng/mL
